From patent US20180244725

Tested on: R5 peptide

With Protein Kinase A (PKA) (NEB P6000S) the “proportion of phosphorylated R5 (LC-MS)” value was “could increase the proportion of phosphorylated R5 to 66% of the total R5 population”.
